These are literature values, as cited in publication PMC8265689 (Journal of the American Chemical Society, 2021).

For series [1] the following is noted: In CH3CN, λirr = 500 nm; L = imatinib; cited from earlier work.
The conditions of series [2]: In MeOH, λirr = 460 nm; L = imatinib; cited from earlier work.

Consider “[Ru(tpy)(Me2dppn)(imatinib)]^2+ [[Ru(tpy)(Me2dppn)(L)]^2+]”, for which the “Quantum yield of ligand exchange (ΦLE)” value in series [1] was 0.073(1). The “Quantum yield of singlet oxygen production (ΦΔ)” value in series [2] is recorded as 0.57(7).
